For the assay, the target named is SARS-CoV-2 3CL protease (3CL-PR) (Severe acute respiratory syndrome coronavirus 2, UniProt P0DTC1). Kind of assay: biochemical.

Structures are written as SMILES.

Broadly, the Ki is a dissociation constant, usually derived from enzyme kinetics or from competition with a known ligand. Read a high Ki as lower affinity. As to `COc1cccc2[nH]c(C(=O)NC(CC(C)C)C(=O)NC(C=O)Cc3cccnc3)cc12` (stereo not shown) [Compound 7], the affinity, expressed as Ki, was 6.2 ± 0.2 µM.

The values above are taken from publication PMC11744766, “Dual Inhibitors of SARS-CoV-2 3CL Protease and Human Cathepsin L Containing Glutamine Isosteres Are Anti-CoV-2 Agents” (Journal of the American Chemical Society, 2025).
